{"source": "patent US10172905B1", "about": "“Treatment of protein degradation disorders” (President and Fellows of Harvard College, priority 2005, dated 2019)", "molecular_target": "T1, HDAC6 (Homo sapiens, UniProt Q9UBN7)", "T1 sequence (Q9UBN7 1-1215)": "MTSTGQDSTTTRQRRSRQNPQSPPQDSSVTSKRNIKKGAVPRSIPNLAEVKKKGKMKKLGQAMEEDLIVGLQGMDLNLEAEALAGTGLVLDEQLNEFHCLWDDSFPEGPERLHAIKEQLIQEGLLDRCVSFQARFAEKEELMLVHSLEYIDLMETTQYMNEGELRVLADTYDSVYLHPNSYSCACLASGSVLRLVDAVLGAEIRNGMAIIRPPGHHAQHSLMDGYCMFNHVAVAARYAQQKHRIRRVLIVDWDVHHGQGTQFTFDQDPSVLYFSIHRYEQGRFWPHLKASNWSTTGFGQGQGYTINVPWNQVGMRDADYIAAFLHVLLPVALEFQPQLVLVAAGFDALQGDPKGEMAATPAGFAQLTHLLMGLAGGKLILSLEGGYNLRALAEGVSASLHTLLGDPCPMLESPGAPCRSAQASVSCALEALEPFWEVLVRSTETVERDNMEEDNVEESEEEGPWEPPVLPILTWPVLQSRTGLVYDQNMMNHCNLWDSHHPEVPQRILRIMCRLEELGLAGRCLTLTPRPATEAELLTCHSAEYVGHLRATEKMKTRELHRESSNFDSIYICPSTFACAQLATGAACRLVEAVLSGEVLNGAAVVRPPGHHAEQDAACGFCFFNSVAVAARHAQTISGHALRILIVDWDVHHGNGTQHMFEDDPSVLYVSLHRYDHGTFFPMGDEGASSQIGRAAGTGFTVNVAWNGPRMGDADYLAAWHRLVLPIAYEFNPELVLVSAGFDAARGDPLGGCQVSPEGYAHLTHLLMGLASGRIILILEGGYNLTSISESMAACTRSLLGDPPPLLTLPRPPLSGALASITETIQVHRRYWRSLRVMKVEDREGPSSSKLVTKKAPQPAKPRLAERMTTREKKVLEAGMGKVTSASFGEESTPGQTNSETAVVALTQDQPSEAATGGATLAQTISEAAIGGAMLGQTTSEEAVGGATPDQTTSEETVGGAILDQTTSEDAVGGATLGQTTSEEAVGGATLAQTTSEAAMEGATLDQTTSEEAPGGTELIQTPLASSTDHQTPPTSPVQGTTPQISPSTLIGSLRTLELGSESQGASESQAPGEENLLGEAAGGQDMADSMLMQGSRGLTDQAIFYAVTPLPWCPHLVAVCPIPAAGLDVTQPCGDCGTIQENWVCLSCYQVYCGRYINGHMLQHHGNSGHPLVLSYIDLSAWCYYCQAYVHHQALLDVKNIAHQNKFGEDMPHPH", "experiment": "Western blotting with anti-acetylated lysine / HDAC6 Abs", "type": "cell-based", "parameters": "MM.1S, U266, INA-6, RPMI8226, and RPMI-LR5 MM cell lines constitutively express HDAC6; endogenous in cells; host or cells: MM.1S, RPMI8226 and other MM cell lines; MM patient BMPCs/PBMCs", "conditions": "SAHA 2.5 and 5 μM, 24 h, MM.1S and RPMI8226 cells", "description": "MM cells were cultured with Velcade and/or Tubacin; harvested; washed; and lysed using lysis buffer: 50 mM Tris-HCl (pH 7.4), 150 mM NaCl, 1% NP-40, 5 mM EDTA, 5 mM NaF, 2 mM Na3VO4, 1 mM PMSF, 5 μg/ml leupeptine, and 5 μg/ml aprotinin. Cell lysates were subjected to SDS-PAGE, transferred to PVDF membrane (Bio-Rad Laboratories, Hercules, Calif.), and immunoblotted with Abs against specific proteins.\nCells cultured with tubacin and/or bortezomib were harvested; washed, and lysed using lysis buffer: 50 mM Tris-HCl (pH 7.4), 150 mM NaCl, 1% NP-40, 5 mM EDTA, 5 mM NaF, 1 mM Na3VO4, 1 mM PMSF, 5 μg/ml leupeptine, and 5 μg/ml aprotinin. Whole cell lysates were subjected to SDS-PAGE, transferred to nitrocellulose membrane (Bio-Rad Laboratories, Hercules, Calif.), and immunoblotted with specific Abs (31). Western blotting was done using anti-HDAC6, acetylated lysine, acetylated histone H3, acetylated histone H4, ubiquitin (Ub), phospho-SAPK (JNK), caspase-8 caspase-9, caspase-3, and PARP Abs (Cell Signaling, Beverly, Mass.); with anti-α-tubulin Ab (Santa Cruz Biotechnology, Santa Cruz, Calif.); as well as with anti-dynein Ab (Sigma, Saint Louis, Mo.). For immunoprecipitation, whole cell lysates were incubated with anti-Ub or dynein Abs overnight at 4° C., and then incubated with protein A/G PLUS-Agarose (Santa Cruz Biotechnology) for 2 h at 4° C., as in our prior study (31). […]", "note": "“Also recorded” adds a separate entry of the source.", "data": [{"smiles": "O=C(CCCCCCC(=O)Nc1ccccc1)NO", "note": "[SAHA, reference compound]", "values": [{"measurement": "acetylation of lysine on histone H3 and H4", "result": "triggers more potent acetylation of lysine on histone H3 and H4 than α-tubulin; also recorded: markedly triggers acetylation of histones H3 and H4"}]}]}
